pKd: −log10 of the molar value.
Biological target: low-density lipoprotein receptor-related protein 1 (LRP1), full-length, purified from human placenta (human) (UniProt Q07954)
Assay: SPR; Biacore 3000; receptor amine-coupled to CM5 chip; ligand flowed in HBS-P (0.01 M HEPES pH 7.4, 0.15 M NaCl, 0.005% P20) with 1 mM CaCl2, 10 ul/min, 25 C; kinetic fit to a 1:1 Langmuir model

The chains behind the UniProt entries cited, without tags or fusion partners. Residues count along the entry.
UniProt Q07954, 20-4544: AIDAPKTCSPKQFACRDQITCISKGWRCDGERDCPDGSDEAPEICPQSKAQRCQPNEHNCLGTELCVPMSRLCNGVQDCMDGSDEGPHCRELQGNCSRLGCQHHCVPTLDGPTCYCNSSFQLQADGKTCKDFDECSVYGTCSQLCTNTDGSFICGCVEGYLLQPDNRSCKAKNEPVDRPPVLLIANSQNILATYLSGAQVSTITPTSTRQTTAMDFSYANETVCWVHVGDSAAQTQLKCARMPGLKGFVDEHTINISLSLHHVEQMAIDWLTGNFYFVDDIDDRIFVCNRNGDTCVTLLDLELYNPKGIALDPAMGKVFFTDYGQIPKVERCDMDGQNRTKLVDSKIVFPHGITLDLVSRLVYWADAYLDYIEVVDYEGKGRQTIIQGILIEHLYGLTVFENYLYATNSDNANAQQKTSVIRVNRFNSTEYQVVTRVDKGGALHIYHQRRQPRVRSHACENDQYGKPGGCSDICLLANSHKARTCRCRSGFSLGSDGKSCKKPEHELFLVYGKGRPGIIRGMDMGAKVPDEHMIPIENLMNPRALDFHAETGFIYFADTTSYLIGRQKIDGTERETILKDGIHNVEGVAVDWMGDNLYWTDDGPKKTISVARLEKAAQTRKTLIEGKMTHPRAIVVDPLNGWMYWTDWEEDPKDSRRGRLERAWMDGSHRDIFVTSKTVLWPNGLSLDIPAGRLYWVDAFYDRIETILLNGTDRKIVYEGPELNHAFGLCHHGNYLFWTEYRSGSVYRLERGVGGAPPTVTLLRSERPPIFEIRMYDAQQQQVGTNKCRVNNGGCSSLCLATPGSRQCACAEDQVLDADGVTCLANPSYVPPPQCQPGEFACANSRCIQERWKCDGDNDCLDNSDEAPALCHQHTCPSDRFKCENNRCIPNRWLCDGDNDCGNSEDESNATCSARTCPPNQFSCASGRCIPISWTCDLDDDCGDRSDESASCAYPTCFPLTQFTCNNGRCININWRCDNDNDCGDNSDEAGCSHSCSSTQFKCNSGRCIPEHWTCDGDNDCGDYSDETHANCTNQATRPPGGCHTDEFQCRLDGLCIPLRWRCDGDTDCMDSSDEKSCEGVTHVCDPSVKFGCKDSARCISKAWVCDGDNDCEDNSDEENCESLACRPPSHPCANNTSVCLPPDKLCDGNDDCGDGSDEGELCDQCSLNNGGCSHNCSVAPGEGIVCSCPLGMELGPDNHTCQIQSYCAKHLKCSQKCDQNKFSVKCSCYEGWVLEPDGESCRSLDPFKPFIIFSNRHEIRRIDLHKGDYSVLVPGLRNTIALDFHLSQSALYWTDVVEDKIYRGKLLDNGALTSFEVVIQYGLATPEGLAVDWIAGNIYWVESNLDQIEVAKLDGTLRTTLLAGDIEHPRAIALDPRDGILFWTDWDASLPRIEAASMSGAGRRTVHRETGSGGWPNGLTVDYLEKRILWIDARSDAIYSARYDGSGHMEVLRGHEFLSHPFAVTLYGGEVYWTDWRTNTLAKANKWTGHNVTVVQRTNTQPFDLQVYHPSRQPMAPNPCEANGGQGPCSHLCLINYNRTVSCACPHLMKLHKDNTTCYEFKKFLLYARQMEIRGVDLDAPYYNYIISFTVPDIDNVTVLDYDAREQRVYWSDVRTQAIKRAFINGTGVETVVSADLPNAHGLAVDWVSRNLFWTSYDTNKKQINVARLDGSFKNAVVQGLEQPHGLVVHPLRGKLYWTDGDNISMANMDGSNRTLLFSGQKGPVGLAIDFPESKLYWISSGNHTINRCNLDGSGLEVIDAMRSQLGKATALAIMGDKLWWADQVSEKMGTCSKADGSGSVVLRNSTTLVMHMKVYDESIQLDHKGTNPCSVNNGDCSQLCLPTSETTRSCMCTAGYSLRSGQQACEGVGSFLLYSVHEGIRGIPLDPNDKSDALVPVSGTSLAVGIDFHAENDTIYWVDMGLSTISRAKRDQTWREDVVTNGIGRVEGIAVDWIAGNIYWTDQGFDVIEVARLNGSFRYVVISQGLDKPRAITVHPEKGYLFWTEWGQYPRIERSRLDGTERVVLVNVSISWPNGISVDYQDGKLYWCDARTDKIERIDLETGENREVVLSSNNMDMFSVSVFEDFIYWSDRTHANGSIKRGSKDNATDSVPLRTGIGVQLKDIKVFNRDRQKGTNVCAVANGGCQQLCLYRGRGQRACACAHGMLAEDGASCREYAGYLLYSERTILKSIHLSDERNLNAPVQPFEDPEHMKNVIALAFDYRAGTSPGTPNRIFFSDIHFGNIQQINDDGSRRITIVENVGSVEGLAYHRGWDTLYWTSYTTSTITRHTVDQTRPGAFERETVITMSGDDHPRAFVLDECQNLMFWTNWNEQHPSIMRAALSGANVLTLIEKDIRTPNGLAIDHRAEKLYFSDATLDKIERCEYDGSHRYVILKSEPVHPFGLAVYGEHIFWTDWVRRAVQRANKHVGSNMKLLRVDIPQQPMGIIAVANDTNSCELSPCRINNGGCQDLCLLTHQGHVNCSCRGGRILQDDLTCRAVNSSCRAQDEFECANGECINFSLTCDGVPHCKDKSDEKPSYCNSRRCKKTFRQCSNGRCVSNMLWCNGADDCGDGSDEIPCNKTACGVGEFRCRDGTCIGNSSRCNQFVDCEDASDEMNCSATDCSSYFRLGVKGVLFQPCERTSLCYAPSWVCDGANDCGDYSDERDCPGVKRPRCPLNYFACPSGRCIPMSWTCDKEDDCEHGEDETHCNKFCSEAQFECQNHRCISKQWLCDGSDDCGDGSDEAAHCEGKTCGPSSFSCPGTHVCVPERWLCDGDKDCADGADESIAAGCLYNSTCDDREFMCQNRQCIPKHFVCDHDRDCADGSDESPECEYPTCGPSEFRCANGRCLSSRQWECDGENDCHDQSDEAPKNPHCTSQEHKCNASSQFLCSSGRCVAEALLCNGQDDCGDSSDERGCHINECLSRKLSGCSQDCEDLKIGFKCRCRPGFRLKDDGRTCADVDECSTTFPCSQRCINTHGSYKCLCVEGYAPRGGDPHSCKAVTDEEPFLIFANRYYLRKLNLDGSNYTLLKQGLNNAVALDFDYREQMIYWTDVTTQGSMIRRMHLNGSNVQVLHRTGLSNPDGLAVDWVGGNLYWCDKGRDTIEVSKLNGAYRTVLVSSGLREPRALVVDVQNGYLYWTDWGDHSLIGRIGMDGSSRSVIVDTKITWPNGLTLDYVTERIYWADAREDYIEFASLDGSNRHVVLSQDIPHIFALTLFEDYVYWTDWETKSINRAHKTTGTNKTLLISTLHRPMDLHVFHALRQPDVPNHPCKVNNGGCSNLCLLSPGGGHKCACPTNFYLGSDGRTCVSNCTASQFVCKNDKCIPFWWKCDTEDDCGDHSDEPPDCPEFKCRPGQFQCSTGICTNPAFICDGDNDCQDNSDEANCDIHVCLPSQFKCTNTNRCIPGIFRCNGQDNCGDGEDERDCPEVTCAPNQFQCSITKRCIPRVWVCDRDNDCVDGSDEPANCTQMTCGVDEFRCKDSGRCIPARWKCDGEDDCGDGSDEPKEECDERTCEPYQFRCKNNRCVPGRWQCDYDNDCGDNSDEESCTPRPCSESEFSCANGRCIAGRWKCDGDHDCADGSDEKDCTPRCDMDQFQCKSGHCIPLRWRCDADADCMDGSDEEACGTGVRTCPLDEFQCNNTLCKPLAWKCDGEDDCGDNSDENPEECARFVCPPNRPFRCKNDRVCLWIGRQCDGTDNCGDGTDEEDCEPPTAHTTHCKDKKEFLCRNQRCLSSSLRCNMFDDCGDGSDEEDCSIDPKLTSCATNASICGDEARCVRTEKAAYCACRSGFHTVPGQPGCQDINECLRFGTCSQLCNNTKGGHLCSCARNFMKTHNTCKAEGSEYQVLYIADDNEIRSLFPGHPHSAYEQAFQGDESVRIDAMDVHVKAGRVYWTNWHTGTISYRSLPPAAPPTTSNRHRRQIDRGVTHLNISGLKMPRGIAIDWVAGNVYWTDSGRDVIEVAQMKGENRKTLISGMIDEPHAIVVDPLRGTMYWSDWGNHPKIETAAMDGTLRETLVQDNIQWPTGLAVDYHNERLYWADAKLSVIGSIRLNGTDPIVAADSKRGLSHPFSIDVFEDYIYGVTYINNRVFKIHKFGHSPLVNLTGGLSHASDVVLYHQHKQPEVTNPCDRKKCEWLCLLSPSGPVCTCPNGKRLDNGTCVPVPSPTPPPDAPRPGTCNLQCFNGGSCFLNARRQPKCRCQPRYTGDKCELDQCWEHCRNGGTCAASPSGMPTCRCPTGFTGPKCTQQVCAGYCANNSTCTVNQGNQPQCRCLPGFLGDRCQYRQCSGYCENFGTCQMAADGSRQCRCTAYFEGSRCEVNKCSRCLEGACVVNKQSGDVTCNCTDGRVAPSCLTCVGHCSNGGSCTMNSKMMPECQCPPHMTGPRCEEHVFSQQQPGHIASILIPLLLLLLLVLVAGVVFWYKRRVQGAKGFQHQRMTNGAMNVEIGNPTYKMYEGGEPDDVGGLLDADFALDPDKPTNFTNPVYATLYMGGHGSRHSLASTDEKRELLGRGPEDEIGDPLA
UniProt Q9BYF1, 18-740: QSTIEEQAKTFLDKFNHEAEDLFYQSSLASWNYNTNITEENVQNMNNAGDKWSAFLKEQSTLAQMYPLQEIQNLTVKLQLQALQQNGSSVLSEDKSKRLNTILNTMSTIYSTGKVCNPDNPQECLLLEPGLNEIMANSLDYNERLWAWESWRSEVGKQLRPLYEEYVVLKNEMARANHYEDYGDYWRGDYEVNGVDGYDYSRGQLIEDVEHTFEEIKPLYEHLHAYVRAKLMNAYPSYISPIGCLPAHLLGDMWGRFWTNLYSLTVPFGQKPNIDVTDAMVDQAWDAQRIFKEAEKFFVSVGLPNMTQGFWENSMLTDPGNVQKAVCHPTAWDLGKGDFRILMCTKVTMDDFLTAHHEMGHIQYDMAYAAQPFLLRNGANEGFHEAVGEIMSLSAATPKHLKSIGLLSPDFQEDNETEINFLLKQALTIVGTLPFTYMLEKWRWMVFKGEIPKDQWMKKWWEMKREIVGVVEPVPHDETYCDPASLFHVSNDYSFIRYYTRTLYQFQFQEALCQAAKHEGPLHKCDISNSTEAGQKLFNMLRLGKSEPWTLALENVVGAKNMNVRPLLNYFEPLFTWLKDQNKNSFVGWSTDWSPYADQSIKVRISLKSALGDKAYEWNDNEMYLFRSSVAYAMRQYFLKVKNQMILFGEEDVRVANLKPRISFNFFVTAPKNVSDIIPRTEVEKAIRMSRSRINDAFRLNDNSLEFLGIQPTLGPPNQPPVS

## Recombinant human angiotensin-converting enzyme two ectodomain (Gln18-Ser740) (from UniProt Q9BYF1 18-740) (domain or fragment)
  pKd: 7.36
  koff: 0.00026 s⁻¹
  kon: 5800 M⁻¹ s⁻¹

Source: paper PMC12192683
